# From patent US7655454B1, “Bacteriological culture medium for Campylobacteriaceae species” (priority 2005, dated 2010)
# Experiments:
# [1] = system: Campylobacter fetus subsp. fetus ATCC 27374; conditions: approximately 10, 20, 30, 40, or 50 mM acid; P<0.05
# [2] = system: Campylobacter jejuni subsp. doylei ATCC 49349; conditions: approximately 10, 20, 30, 40, or 50 mM acid; P<0.05
Structure (SMILES),OD of cultures compared with cultures in non-supplemented media [1],absorbance compared with cultures grown in non-supplemented media [2]
"O=C(O)CC(O)C(=O)O (racemic) [Malic, DL-malic acid]",significantly higher,–
"O=C(O)CC(O)(CC(=O)O)C(=O)O [Citric, citric acid]",–,inability of citric acid to stimulate Campylobacter growth at any level of supplementation
"O=C(O)/C=C/C(=O)O [Fumaric, fumaric acid]",significantly higher,–
"O=C(O)CCC(=O)O [Succinic, succinic acid]",significantly higher,–
